In ChEMBL document CHEMBL3808335, “Discovery of KLS-13019, a Cannabidiol-Derived Neuroprotective Agent, with Improved Potency, Safety, and Permeability” (ACS Med Chem Lett, 2016):

Experiments:
[1] = Efflux ratio of permeability from basolateral to apical over apical to basolateral side in human Caco cells; conditions: Caco-2
in vitro = conditions: rat, hippocampal neurone

## C=C(C)[C@@H]1CCC(C)=C[C@H]1c1c(O)cc(CCCCC)cc1O [CANNABIDIOL]
[1]
  efflux ratio: > 0.4
In vitro
  selectivity ratio at 5 h: 16
